Compound activity: PubChem, several laboratories
CendR NRP1 mod = modulators of CendR peptide binding to human neuropilin-1; O14786; FAM-RPARPAR peptide binding to NRP-1, fluorescence polarization; inhibition, % at 25 µM; hit rate 0.85% among 360,000; AID 602438;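 active means inhibition or corrected inhibition above about 18%, plus a signal ratio from 0.5 to 1.5, limit read from the data, passing the limit was not always enough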
Yeast UUG start-1 = yeast start codon fidelity modulation | S. cerevisiae UUG-firefly luciferase reporter, luminescence/redox ratio | activity score, % at 18.7 µM | hit rate 0.13% among 350,000 | AID 602363;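 active means replicate mean at a twofold rise or more, about +100% in these data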;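 further: firefly luciferase made from a UUG start codon reports start codon fidelity; reporter light over untreated wells divided by growth signal over untreated wells; some hits fall short of that in this replicate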
MC4R antagonist = blocks human MC4R cAMP signaling; MC4R-expressing cells, MTII-stimulated cAMP, LANCE TR-FRET; AID 540295; inhibition, % at 6.5 µM; P32245; hit rate 0.48% among 360,000;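 active means inhibition above its plate's cutoff, the mean of tested wells on that plate plus 3 SD, cut at about 29% in these data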;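 further: 0% = Melanotan II alone and 100% = Melanotan II plus saturating MCL0020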
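Assay system: U2OS cells stably expressing human melanocortin 4 receptor (MC4R) / Dosing: 6.5 µM / Timing: compound 30 min, challenge 1 h, detection 1 h / Measured by: Eu-cAMP/anti-cAMP TR-FRET, emission 671 nm / Replicates: singlicate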
ARFGAP1 inhibitor = inhibits rat ARF GTPase activating protein 1 | Arfgap1-stimulated ARF1 GTP hydrolysis, GDP FP detection | Q62848 | hit rate 0.26% among 360,000 | inhibition, % at 16.5 µM;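 active means inhibition above a per-plate limit, mean inhibition of low control wells plus 3 SD, cut at about 25% in these data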;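 further: 0% = DMSO wells with enzyme and 100% = wells lacking Arfgap1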
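Replicates: Single well per compound | Assay system: Truncated rat Arfgap1 GAP domain | Control set: No-Arfgap1 wells (100%) versus DMSO full-reaction wells (0%) | Times: Enzyme reaction 120 min at 25 °C after 20 min preincubation | Reagent: Human ARF1(Δ1-17)-GTP substrate | Measured by: Tracer-displacement fluorescence polarization with EDTA stop, 620/688 nm | Measure: Percent inhibition of Arfgap1-stimulated GTP hydrolysis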
ASAP1 GAP inh = blocks human ASAP1-stimulated Arf1 GTP hydrolysis | GDP FP detection | inhibition, % at 16.5 µM | hit rate 0.19% among 360,000 | AID 624377; in the data active means inhibition above about 25%;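 further: 0% = vehicle with enzyme and substrate and 100% = no enzyme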
MC4R ag barr = human MC4R agonism via beta-arrestin; P32245; U2OS MC4R beta-arrestin complementation, luminescence; percent of melanotan II response, DMSO zero; activation, % at 8.9 µM; hit rate 0.98% among 360,000;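 active means activation above a per-plate cutoff, the mean activation of sample wells on that plate plus 3 SD, cut at about 8% in these data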
Yeast UUG start-2 = alters UUG start codon use in yeast. shares compounds with Yeast UUG start-1. S. cerevisiae UUG-start firefly luciferase, luminescence, 4 h; 100% means double the DMSO signal. activation, % at 38 µM. 540 tested, under 10 active;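 active means signal increase whose fitted curve reaches an absolute level of 40 at a concentration under 10 µM; inactive means activity opposite to the expected increase, or the rest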
An asterisk follows results filed as active; i = inactive; · = not tested or not shown; ! = repeats disagree. The list is not random: actives were taken first. Their share in the collection is about 2.3%.

Abbreviations: A = CendR NRP1 mod; B = Yeast UUG start-1; C = MC4R antagonist; D = ARFGAP1 inhibitor; E = ASAP1 GAP inh; F = MC4R ag barr; G = Yeast UUG start-2
#1 CCC(=O)N1CC[C@@H]2[C@@H](CO)Nc3ccc(C#Cc4cccnc4)cc3[C@@H]21
  A = ·	B = 2	C = ·	D = ·	E = ·	F = ·	G = ·
#2 C[C@H]1CCCCO[C@H](CN(C)Cc2ccccc2)[C@@H](C)CN([C@@H](C)CO)C(=O)c2cc(NC(=O)Nc3ccccc3)ccc2O1
  A = ·	B = 1	C = ·	D = ·	E = ·	F = ·	G = ·
#3 COc1ccc(OC)c(NC(=O)Cc2nn(C)c(=O)c3ccccc23)c1
  A = -2	B = -11	C = 2	D = 13	E = 11	F = 0	G = 10
#4 COc1cccc(C#Cc2cnc3c(c2)C(=O)N([C@H](C)CO)C[C@H](C)[C@H](CN(C)C(=O)C2CCOCC2)O3)c1
  A = ·	B = 125*	C = ·	D = ·	E = ·	F = ·	G = i
#5 C[C@@H]1CN([C@H](C)CO)C(=O)c2cc(C#CC3CCCCC3)cnc2O[C@H]1CN(C)Cc1cccnc1
  A = -10	B = 162*!	C = -1	D = 11	E = -6	F = 0	G = i
#6 C[C@@H]1CN([C@@H](C)CO)C(=O)c2cc(C#CCc3ccccc3)cnc2O[C@H]1CN(C)CC1CCCC1
  A = ·	B = 167*	C = ·	D = ·	E = ·	F = ·	G = i
#7 Cc1noc(C)c1NC(=O)N(C)C[C@H]1Oc2ncc(C#CC3CCCCC3)cc2C(=O)N([C@H](C)CO)C[C@@H]1C
  A = ·	B = 12*	C = ·	D = ·	E = ·	F = ·	G = i
#8 C[C@@H]1CN([C@H](C)CO)C(=O)c2cc(C#CC3CCCCC3)cnc2O[C@@H]1CN(C)Cc1cccnc1
  A = ·	B = 11	C = ·	D = ·	E = ·	F = ·	G = ·
#9 COc1cccc(C#Cc2cnc3c(c2)C(=O)N([C@@H](C)CO)C[C@H](C)[C@@H](CN(C)C(=O)C2CCOCC2)O3)c1
  A = ·	B = 3	C = ·	D = ·	E = ·	F = ·	G = ·
#10 Cc1noc(C)c1NC(=O)N(C)C[C@@H]1Oc2ncc(C#CC3CCCCC3)cc2C(=O)N([C@H](C)CO)C[C@H]1C
  A = ·	B = -13	C = ·	D = ·	E = ·	F = ·	G = ·
#11 C[C@H]1CN([C@@H](C)CO)C(=O)c2cc(C#CCC3CCCC3)cnc2O[C@@H]1CN(C)C(=O)CC1CC1
  A = -4	B = 121*!	C = 0	D = 5	E = -5	F = -1	G = i
#12 Cn1nc(C(=O)NCc2ccccc2)c2ccccc2c1=O
  A = 6	B = -12	C = 7	D = -6	E = -8	F = -1	G = ·
#13 CCCCn1nc(CC(=O)NCCN(CC)CC)c2ccccc2c1=O
  A = 1	B = ·	C = 0	D = -9	E = -4	F = 0	G = -6
#14 CCN(CC)CCNC(=O)C(C)c1nn(C)c(=O)c2ccccc12 (stereo unspecified)
  A = 5	B = 5	C = -1	D = -5	E = -16	F = -1	G = -5
#15 CCN(CC)CCNC(=O)Cn1nc(Cc2cccnc2)c2ccccc2c1=O
  A = 4	B = -8	C = 4	D = -1	E = 3	F = -1	G = ·
#16 C[C@@H]1CN([C@@H](C)CO)C(=O)c2cc(NS(=O)(=O)c3cn(C)cn3)ccc2O[C@H]1CN(C)Cc1ccc(C(=O)O)cc1
  A = ·	B = -6	C = ·	D = ·	E = ·	F = ·	G = ·
#17 COc1ccccc1C(=O)NCC(=O)OCC(=O)c1ccc2c(c1)-c1ccccc1C2
  A = -11	B = 551*	C = -6	D = 2	E = -6	F = 7	G = 3
#18 CCOc1ccc(C(=O)NCC(=O)OCC(=O)c2ccc3c(c2)-c2ccccc2C3)cc1
  A = 4	B = ·	C = 10	D = -2	E = -3	F = -1	G = ·
#19 COCC(=O)Nc1ccc2c(c1)[C@@H]1C[C@@H](CC(=O)NCc3ccc(-c4ccccc4)cc3)O[C@@H](CO)[C@@H]1O2
  A = ·	B = 3	C = ·	D = ·	E = ·	F = ·	G = ·
#20 C/C=C/c1cnc2c(c1)C(=O)N([C@H](C)CO)C[C@H](C)[C@H](CN(C)C(=O)c1cnccn1)O2
  A = ·	B = 137*	C = ·	D = ·	E = ·	F = ·	G = i

An excerpt of these results, with each value named:
(15) CCN(CC)CCNC(=O)Cn1nc(Cc2cccnc2)c2ccccc2c1=O
  CendR NRP1 mod: 4 | Yeast UUG start-1: -8 | MC4R antagonist: 4 | ARFGAP1 inhibitor: -1 | ASAP1 GAP inh: 3 | MC4R ag barr: -1 | Yeast UUG start-2: ·
(16) C[C@@H]1CN([C@@H](C)CO)C(=O)c2cc(NS(=O)(=O)c3cn(C)cn3)ccc2O[C@H]1CN(C)Cc1ccc(C(=O)O)cc1
  CendR NRP1 mod: · | Yeast UUG start-1: -6 | MC4R antagonist: · | ARFGAP1 inhibitor: · | ASAP1 GAP inh: · | MC4R ag barr: · | Yeast UUG start-2: ·

Following part
Abbreviations: A = CendR NRP1 mod; B = Yeast UUG start-1; C = MC4R antagonist; D = ARFGAP1 inhibitor; E = ASAP1 GAP inh; F = MC4R ag barr; G = Yeast UUG start-2
#21 C[C@H](CO)N1C[C@H](C)[C@@H](CN(C)C(=O)c2ccccn2)Oc2ncc(Br)cc2C1=O
  A = ·	B = 202*	C = ·	D = ·	E = ·	F = ·	G = i
#22 COc1ccc(-c2cn(CC(=O)N3CCN(C)CC3)nn2)cc1OC
  A = ·	B = 148*	C = ·	D = ·	E = ·	F = ·	G = i
#23 COc1ccc(-c2nc(CSCC(=O)N3CCN(C)CC3)c(C)o2)cc1OC
  A = 5	B = 1	C = -3	D = -4	E = 0	F = -1	G = ·
#24 O=C(NNc1ccccc1C(F)(F)F)c1sccc1Br
  A = -10	B = active	C = -6	D = -1	E = -11	F = -1	G = -4
#25 O=C(Nc1ccccc1C(F)(F)F)c1ccsc1
  A = 1	B = 5	C = 13	D = -3	E = 1	F = -1	G = ·
#26 O=S(=O)(N[C@H]1CC[C@@H](CCn2cc(C3(O)CCCC3)nn2)O[C@@H]1CO)c1ccc(F)cc1
  A = ·	B = 178*	C = ·	D = ·	E = ·	F = ·	G = i
#27 O=C(N[C@@H]1CC[C@H](CCn2cc(C3(O)CCCC3)nn2)O[C@@H]1CO)C1CCCCC1
  A = ·	B = 7	C = ·	D = ·	E = ·	F = ·	G = ·
